scFv variants of Ab-14 (light chain) against a SARS-CoV-2 spike peptide

The target is the same throughout: PDVDLGDISGINAS, from the HR2 region of SARS-CoV-2 spike.

Parent: Ab-14, a human scFv built as VH, the linker GGGGSGGGGSGGGGS, VL. Only the CDRs of the light chain vary.
VH: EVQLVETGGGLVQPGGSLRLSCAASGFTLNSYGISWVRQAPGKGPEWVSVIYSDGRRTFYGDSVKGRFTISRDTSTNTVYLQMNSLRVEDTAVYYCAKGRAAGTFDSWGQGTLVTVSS
VL: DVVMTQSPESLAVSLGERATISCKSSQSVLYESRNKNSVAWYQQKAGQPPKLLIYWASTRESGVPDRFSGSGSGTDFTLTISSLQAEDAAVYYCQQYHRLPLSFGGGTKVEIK

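The starting antibody came from a phage panning campaign against this peptide. The variants were designed computationally from a first round of random CDR variants and then made and measured. Several design methods are mixed in this list. The assay is AlphaSeq: two haploid yeast populations carry antibody and antigen on their surface. Pairs that bind mate more often; barcode pairs of the diploids are counted by sequencing. Each replicate has its own calibration line, from reference interactions of the BCL2 family. The assay was run in six technical replicates.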

The parent's light chain CDRs are KSSQSVLYESRNKNSVA, WASTRES, QQYHRLPLS; each variant's own CDRs replace them letter for letter. This list holds designs with at most six substitutions. Scale: log10 of Kd in nM, estimated from mating counts; low values are strong binders. Replicates are averaged; those with no signal do not enter the mean. An entry "nd" has no value in the source: the pair was not observed among the diploids in that replicate. This suggests poor binding but is not conclusive.

* KLLWSVLYESNNKNSVA, HASTREQ, QQYHRLPLS -> 0.88, 0.90, 0.63, 0.48, 1.33, 1.07 (mean 0.88)
* KCSQSVEYHSRNKNSVA, WASTRES, QQYIRLPLP -> nd, nd, nd, nd, nd, nd
* KLSQSVLYESRAKNSVA, NASQRES, QQYHRLPLS -> 1.03, 0.52, 0.22, 0.56, 0.44, 0.97 (mean 0.62)
* KSSQAWLYEQRNKNSVA, QASTRES, QQYHRLPLS -> nd, nd, nd, nd, nd, nd
* KSSWSVLYESGNKNSVA, HASTRES, QQYHRLPLS -> 0.58, 0.52, 0.50, 0.73, 0.91, 0.59 (mean 0.64)
* KVSVSQLYESRNKNSVA, WASTRES, QQYHRLPLS -> 1.00, 1.39, 0.68, 1.05, 1.39, 0.72 (mean 1.04)
* KESQSWYYESRNKNSVA, GASTRES, QQYHRLPLS -> -0.03, -0.03, 0.06, -0.24, -0.24, 0.03 (mean -0.08)
* KLSQSVLYESRNKNSVA, NASQREC, QQYHRLPLS -> 0.05, 0.13, -0.09, -0.13, -0.18, 0.04 (mean -0.03)
* HSSPSVLYESRNPNSVA, NASTRES, QQYHRLPLS -> -0.59, -0.49, -0.67, -0.57, -0.71, -0.40 (mean -0.57)
* KLSQSFLYESRNKNNVA, GASTRES, QQYHRLPLS -> 0.03, -0.29, -0.26, -0.32, -0.18, -0.11 (mean -0.19)
* KSSQSLLYESREKNSVA, DASTRES, QQYHECPLS -> nd, nd, nd, nd, nd, 2.45
* KSSQSLLYESRNKNSFA, WASTRED, QQYHRLPLS -> nd, nd, nd, nd, nd, nd
* KVSQSVLYEQRNKNSVA, NASQRES, QQYHRLPLS -> -0.09, 0.02, -0.31, -0.35, -0.34, -0.02 (mean -0.18)
* KFSQSVVYESRTKNSVA, NASTRES, QQYHRLPLS -> 0.11, 0.18, 0.09, 0.22, 0.11, 0.27 (mean 0.16)
* KLQQSYLYESRNKNSVA, SASTRES, QQYHRLPLS -> -0.08, -0.16, -0.07, -0.16, -0.12, 0.07 (mean -0.09)
* KSSQSVLAESRNKNSVA, DASTRHS, QQYARLPLY -> 0.28, 0.19, -0.01, 0.18, 0.09, 0.22 (mean 0.16)
* KLRMSTEYESRNKNSVA, WASTRES, QQYHRLPLS -> 2.21, 1.95, 2.00, 1.57, 1.25, 1.69 (mean 1.78)
* KLSQSELYESRNKNSVA, DASQRES, QQYHRLPLS -> -0.12, -0.31, -0.59, -0.53, -0.55, -0.51 (mean -0.44)
* KSSQSVLMESRNKNSVA, WASTRES, QQYHRIPFS -> nd, nd, 4.53, 3.41, 3.51, nd (mean 3.81)
* KISQSACMESRNKNSVA, NASKRES, QQYHRLPLS -> 0.98, 0.73, 0.59, 1.11, 0.73, 0.72 (mean 0.81)
* KSSQSVLYESRNKNSVA, WASQRES, QQYHRLPLS -> nd, nd, nd, nd, 3.64, 2.50 (mean 3.07)
* KVPQSVLYESRNKNSVA, EASQRES, QQYHRLPLS -> 0.13, 0.01, 0.05, -0.29, -0.54, -0.25 (mean -0.15)
* KQSQSEACESRNKNSVA, DASTRES, QQYHRLPLS -> -0.06, -0.31, -0.30, -0.48, -0.14, 0.09 (mean -0.20)
* KSSQSVLYESGNKNSVA, WASTREN, QQYHVLPLS -> nd, 0.98, nd, nd, nd, nd
* KLSQSVLYESRNFNNVA, NASTRES, QQYHRLPLS -> -0.28, -0.36, -0.38, -0.55, -0.26, -0.23 (mean -0.34)
* KSSQSVLAESRNKNSVA, GASTRES, QQYHRLPLS -> 0.61, 0.57, 0.25, 0.42, 0.33, 0.59 (mean 0.46)
* KSGQGVLYESRNKNSVA, GASQRES, QQYHRLPLS -> 0.34, 0.32, -0.02, 0.14, 0.17, 0.37 (mean 0.22)
* KSSQSVSYESTNKNSVA, EASTRES, QQYHRLPLS -> nd, nd, nd, nd, nd, nd
* KLSQSWLYESRNKNSVA, QGSTRES, QQYHRLPLS -> -0.10, -0.23, -0.33, -0.45, -0.32, -0.15 (mean -0.26)
* KVYPSHLYESRNKNSVA, QASTRES, QQYHRLPLS -> 0.21, 0.49, 0.72, 0.09, 0.37, 0.49 (mean 0.40)
* KLRQSTLYESRNKNQVA, WASTRES, QQYHRLPLS -> 1.95, 2.47, nd, nd, nd, 3.23 (mean 2.55)
* KSSKSVLLESSNKNSVA, HASTRES, QQYWRLPLS -> 1.30, 1.29, 0.95, 0.66, 0.63, 1.41 (mean 1.04)
* KSSQSVQYESRNKNSVA, WASTRED, QQYHSLPIS -> nd, 1.68, nd, 1.65, nd, nd (mean 1.66)
* KLPQSDLYESRNKNSVA, AASTRES, QQYHRLPLS -> 0.15, -0.22, -0.07, -0.07, -0.04, 0.27 (mean 0.00)
* KSSQSVLYESRNKNSVA, WASTREY, QQYYRLPLS -> 2.22, 1.58, 1.64, 5.11, nd, 1.71 (mean 2.45)
* KSSQSVKGESRNKNSVA, DASTRES, QQYHRLPLS -> 0.76, 0.56, -0.02, 0.32, 0.39, 0.22 (mean 0.37)
* KQSQSVLYESRNKNAVA, DASTRES, QLYHWLPLS -> -0.11, -0.39, -0.50, -0.20, -0.34, -0.18 (mean -0.29)
* KVSQSVLYESRNKNSVA, NASTRES, QQYHRLPLY -> -0.16, -0.28, -0.26, -0.46, -0.26, -0.30 (mean -0.29)
* KQSQSVLYESRNKNSVA, DAGTRES, FQYFRLPLS -> 1.95, 1.79, 0.78, 0.53, 1.65, 0.71 (mean 1.23)
* KLEQSELYESRNKNSVA, NASTRLS, QQYHRLPLS -> -0.02, -0.11, -0.13, -0.25, -0.20, 0.01 (mean -0.12)
* KFSQSDLYESRNKNSVA, NASQRES, QQYHRLPLS -> -0.20, -0.40, -0.36, -0.30, -0.38, -0.27 (mean -0.32)
* KVMQSYLYESRNKNSVA, NASTRES, QQYHRLPLS -> 1.13, 0.74, 0.10, 1.53, 0.49, 0.42 (mean 0.74)
* KISQSVLYELRNKNSVA, WASTRES, QQYHRLPLS -> 0.96, 2.35, 2.06, 1.51, 2.07, 1.53 (mean 1.75)
* KVSQSVLYEDRNKNSVA, NGSTRES, QQYHRLPLS -> 0.64, 0.48, 0.20, 0.40, 0.31, 0.42 (mean 0.41)
* HLSDSVLYESRNQNSVA, NASTRES, QQYHRLPLN -> 1.19, 1.95, 0.92, 1.77, nd, 2.04 (mean 1.57)
* KSSQSVAYNSRNKNNVA, WASTRES, QQYHRLPLS -> 1.59, 1.17, 0.78, 2.09, 0.76, 1.26 (mean 1.27)

Again, the first 4 entries without any signal:

| CDR-L1 | CDR-L2 | CDR-L3 | replicates, log10 nM | log10 Kd (nM), mean |
|---|---|---|---|---|
| KCSQSVEYHSRNKNSVA | WASTRES | QQYIRLPLP | nd, nd, nd, nd, nd, nd | nd |
| KSSQAWLYEQRNKNSVA | QASTRES | QQYHRLPLS | nd, nd, nd, nd, nd, nd | nd |
| KSSQSLLYESRNKNSFA | WASTRED | QQYHRLPLS | nd, nd, nd, nd, nd, nd | nd |
| KSSQSVSYESTNKNSVA | EASTRES | QQYHRLPLS | nd, nd, nd, nd, nd, nd | nd |

The authors averaged sequences with at least three values out of six and counted those with two or fewer as poor binders. As a blank, each scFv also met three strains without target: over all light chain designs, 4% of these pairings were detected, typically at 2.64 and seldom below 1.59. The range of this assay differs from that of the first round, and the authors advise against merging the two.

From the AlphaSeq antibody data of Li et al. 2023 (doi:10.1038/s41467-023-39022-2), copy in the FLAb collection.